Antibody variant affinities, Ab-14 heavy chain, assay B

From the AlphaSeq antibody data of Li et al. 2023 (doi:10.1038/s41467-023-39022-2), copy in the FLAb collection.

Target peptide (SARS-CoV-2 spike, HR2 region): PDVDLGDISGINAS

The variants keep the light chain, the linker and the frameworks of Ab-14 (scFv order VH, three GGGGS repeats, VL).
VH: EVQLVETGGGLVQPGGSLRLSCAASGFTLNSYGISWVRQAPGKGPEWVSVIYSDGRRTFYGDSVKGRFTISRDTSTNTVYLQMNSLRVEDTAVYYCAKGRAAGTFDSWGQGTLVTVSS
VL: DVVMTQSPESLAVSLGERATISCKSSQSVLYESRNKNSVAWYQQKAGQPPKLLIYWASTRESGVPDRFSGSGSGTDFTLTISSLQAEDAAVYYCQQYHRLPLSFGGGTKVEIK

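The starting antibody came from a phage panning campaign against this peptide. The variants were designed computationally from a first round of random CDR variants and then made and measured. Several design methods are mixed in this list. Affinity was read by AlphaSeq, a pooled yeast mating assay with surface-displayed partners. Binding brings cells together so that they mate, and sequencing counts the barcode pairs among the diploids. Read counts were normalised to the haploid input and turned into Kd by a linear fit to BCL2-family pairs of known affinity, for each replicate. There are six technical replicates.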

Positions count from residue 1 of the parent VH; R56K puts K in place of R.
This list holds designs with at most six substitutions.
Values are apparent Kd, the geometric mean of the replicates that gave a signal; lower means stronger binding.
A pair that was not seen in any replicate is written "nd"; this usually means weak binding, but a binder can also be missed.
Entries are sorted by rising average, undetected variants last.
The parent sequence was in this pool as ten entries: three were never detected, three once, and four in most replicates, with averages from 2.2 nM to 240 nM.
In the paper, a design with two or fewer of six values counts as a poor binder.
Background: pairings of all heavy chain designs with three empty control strains gave a value in 1% of cases (median 120 nM, 5th percentile 7.0 nM). Values in that range, when seen in few replicates, are hard to tell from nonspecific mating.
The range of this assay differs from that of the first round, and the authors advise against merging the two.

For R56K S107W, the assay gave 240 pM (6 of 6 replicates).
For S31Q G61S R100Q A101T, the assay gave 550 pM (6 of 6 replicates).
For S31E G61S A101T S107T, the assay gave 630 pM (6 of 6 replicates).
For T28D F59M A101V, the assay gave 870 pM (6 of 6 replicates).
For T28Q S31E G61S R100S, the assay gave 910 pM (6 of 6 replicates).
For T28S G61S S63R A101E, the assay gave 1.2 nM (6 of 6 replicates).
For T28E G61S R100W A101T, the assay gave 1.4 nM (6 of 6 replicates).
For T28E R56K S63K A101T, the assay gave 1.8 nM (6 of 6 replicates).
For T28S S31E R100V, the assay gave 1.9 nM (6 of 6 replicates).
For T28D G61Q, the assay gave 2.3 nM (6 of 6 replicates).
For S31Q G61A A101L, the assay gave 2.5 nM (6 of 6 replicates).
For T28E A101N, the assay gave 2.5 nM (6 of 6 replicates).
For G61S R100M, the assay gave 3.8 nM (6 of 6 replicates).
For N30G G61S S63N A102G T104I, the assay gave 4.0 nM (5 of 6 replicates).
For S31D A101T S107L, the assay gave 4.5 nM (6 of 6 replicates).
For T28N R100M A101N, the assay gave 4.6 nM (3 of 6 replicates).
For G61S R100H S107K, the assay gave 6.4 nM (6 of 6 replicates).
For T28R S31E R100K S107Q, the assay gave 6.9 nM (6 of 6 replicates).
For T28D G61I S107L, the assay gave 7.1 nM (6 of 6 replicates).
For T28S G61A R100N S107Q, the assay gave 8.5 nM (6 of 6 replicates).
For T28E G61I R100H S107T, the assay gave 9.4 nM (6 of 6 replicates).
For T28E G61T, the assay gave 12 nM (4 of 6 replicates).
For T28P R100M A101L, the assay gave 23 nM (6 of 6 replicates).
For G26D T28S A101T, the assay gave 24 nM (6 of 6 replicates).
For T28S S31M F59Q, the assay gave 26 nM (6 of 6 replicates).
For T28S G61A R100T S107K, the assay gave 26 nM (2 of 6 replicates).
For G61S S107H, the assay gave 29 nM (3 of 6 replicates).
For T28W S31E G61H S107E, the assay gave 31 nM (2 of 6 replicates).
For R56F A101V, the assay gave 33 nM (5 of 6 replicates).
For T28S R100S A101E S107N, the assay gave 35 nM (1 of 6 replicates).
For N30E S53A S63Q D106K, the assay gave 36 nM (6 of 6 replicates).
For G61V S63D R100Q A101L, the assay gave 44 nM (5 of 6 replicates).
For T28S G61C A101T S107T, the assay gave 54 nM (4 of 6 replicates).
For T28S R100N S107D, the assay gave 56 nM (6 of 6 replicates).
For S31D Y60M G99W, the assay gave 60 nM (5 of 6 replicates).
For G26L S31D G61R A101T, the assay gave 70 nM (1 of 6 replicates).
For S31E G61S R100H S107F, the assay gave 72 nM (4 of 6 replicates).
For T28D R100K A101T S107C, the assay gave 78 nM (1 of 6 replicates).
For T28D R100F T104W D106Y, the assay gave 94 nM (1 of 6 replicates).
For T28Q F59S, the assay gave 99 nM (6 of 6 replicates).
For S31D S63A D106M, the assay gave 560 nM (1 of 6 replicates).
For T28D G61A T104W D106N, the assay gave nd (0 of 6 replicates).
For T28D A101H S107T, the assay gave nd (0 of 6 replicates).
For S31E S63D A102H T104V D106I, the assay gave nd (0 of 6 replicates).
For T28W S31E A101H S107T, the assay gave nd (0 of 6 replicates).
For F59A G99A, the assay gave nd (0 of 6 replicates).
For F27E R56L F59A A101W A102G T104F, the assay gave nd (0 of 6 replicates).
For T28C G61S S107T, the assay gave nd (0 of 6 replicates).
For G26K T28Q G61A A101Q, the assay gave nd (0 of 6 replicates).
For L29I I34S G61K G103Q, the assay gave nd (0 of 6 replicates).
For S31E D106I S107Q, the assay gave nd (0 of 6 replicates).
For N30D Y60W F105A D106L, the assay gave nd (0 of 6 replicates).

A selection of 7 entries from above:

changes,apparent Kd,replicates with signal
T28E R56K S63K A101T,1.8 nM,6 of 6
T28Q F59S,99 nM,6 of 6
S31E G61S A101T S107T,630 pM,6 of 6
T28S G61S S63R A101E,1.2 nM,6 of 6
N30G G61S S63N A102G T104I,4.0 nM,5 of 6
S31E G61S R100H S107F,72 nM,4 of 6
S31D S63A D106M,560 nM,1 of 6